Results published in patent US6828348B2, “L-ascorbic acid-2-o-maleic acid-a-tocopherol diester 1-propanol adduct and process for producing the same” (Senju Pharmaceutical Co., Ltd., priority 2002, dated 2004).

Protocol: The experimental conditions are as follows:
Detector: Ultraviolet absorptiometer (wave length: 220 nm)
Column: A stainless steel tube of 6 mm ID and 15 cm length being packed with octadecylated silica gel of […] in particle size designed for use in liquid chromatograph.
Mobile phase: As prepared by dissolving 0.4 g of crystalline sodium dihydrogenphosphate and 0.3 g of sodium chloride in 50 ml of water, and adding 500 ml of methanol and 450 ml of acetonitrile, followed by addition of phosphoric acid to adjust to pH 4.0.
Flow rate: As regulated so that the retention time may be about 12 min.

L-Ascorbic acid-2-O-maleic acid-α-tocopherol diester.1-propanol adduct [Example 1]
Storage stability (in words): superior to the ethanol adduct in storage stability
